Results as given in patent US7276480B1, “Prevention and reduction of blood loss” (Dyax Corp., priority 2005, dated 2007).

Target: T1, porcine pancreatic kallikrein (Sus scrofa, UniProt P00752)
T1 construct: from tissue
T1 sequence (P00752 8-246): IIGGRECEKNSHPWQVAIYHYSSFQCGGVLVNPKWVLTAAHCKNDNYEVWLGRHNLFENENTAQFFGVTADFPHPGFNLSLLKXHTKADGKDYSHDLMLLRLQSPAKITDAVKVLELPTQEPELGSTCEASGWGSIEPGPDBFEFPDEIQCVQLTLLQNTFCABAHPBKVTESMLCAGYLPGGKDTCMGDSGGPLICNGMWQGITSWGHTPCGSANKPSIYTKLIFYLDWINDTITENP
Experiment: Affinity (Ki,app) for plasma proteases, Table 1
Type: biochemical
Details: read-out: Ki,app

Substance: aprotinin
- Ki: 0.55 nM
